{"source": "patent US20250170078A1", "about": "“STABLE PHARMACEUTICAL COMPOSITIONS OF HYDROXYUREA” (Slayback Pharma LLC., priority 2022, published 2025)", "origin": "cited, not measured here", "tested_on": "rat", "conditions": "compared with hydroxycarbamide (hydroxyurea)"}
{"smiles": "NC(=O)NOC(N)=O", "note": "[carbamoyloxyurea]", "values": [{"measurement": "risk in rat toxicology studies", "result": "does not pose a risk over and above hydroxycarbamide"}]}
